{
  "source": "ChEMBL document CHEMBL1772956",
  "about": "“Synthesis and binding affinity of novel mono- and bivalent morphinan ligands for κ, μ, and δ opioid receptors” (Bioorg Med Chem, 2011)",
  "key": {"[1]": {"organism": "Homo sapiens", "experiment": "Selectivity ratio of Ki for human kappa opioid receptor over Ki for human mu opioid receptor", "summary_of_the_method": "(§1)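 Competition binding used CHO membranes stably expressing human κ, μ or δ receptor with 12 compound concentrations in 50 mM Tris-HCl pH 7.5 at 25°C. The radioligands were κ [3H]U69,593 for 60 min, μ [3H]DAMGO for 60 min and δ [3H]naltrindole for 3 h. […] Samples were GF/B filtered and counted by scintillation. IC50 came from log-probit analysis and was converted to Ki by Cheng-Prusoff, from three experiments in triplicate.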"}, "[2]": {"organism": "Homo sapiens", "experiment": "Selectivity ratio of Ki for human kappa opioid receptor over Ki for human delta opioid receptor", "summary_of_the_method": "as §1"}},
  "data": [
    {"molecule": "Oc1ccc2c(c1)[C@@]13CCCC[C@H]1[C@@H](C2)N(CC1CCC1)CC3", "values": [
      {"measurement": "Ratio Ki", "setting": "[1]", "value": 3},
      {"measurement": "Ratio Ki", "setting": "[2]", "value": 75}
    ]}
  ]
}
